Data: ChEMBL document CHEMBL5154739, “Structure-activity relationships of N-terminal variants of peptidomimetic tissue transglutaminase inhibitors” (Eur J Med Chem, 2022)
The source made the active and inactive calls. No cut-off for these calls is given here.

How the values were obtained:
[1] = target: T1, Protein-glutamine gamma-glutamyltransferase (Homo sapiens) (UniProt P21980); assay: Inhibition of TG2 (unknown origin) using Cbz-Glu(gamma-p-nitrophenyl ester)Gly (AL5) as substrate and measured by colorimetric assay
T1 sequence (whole entry): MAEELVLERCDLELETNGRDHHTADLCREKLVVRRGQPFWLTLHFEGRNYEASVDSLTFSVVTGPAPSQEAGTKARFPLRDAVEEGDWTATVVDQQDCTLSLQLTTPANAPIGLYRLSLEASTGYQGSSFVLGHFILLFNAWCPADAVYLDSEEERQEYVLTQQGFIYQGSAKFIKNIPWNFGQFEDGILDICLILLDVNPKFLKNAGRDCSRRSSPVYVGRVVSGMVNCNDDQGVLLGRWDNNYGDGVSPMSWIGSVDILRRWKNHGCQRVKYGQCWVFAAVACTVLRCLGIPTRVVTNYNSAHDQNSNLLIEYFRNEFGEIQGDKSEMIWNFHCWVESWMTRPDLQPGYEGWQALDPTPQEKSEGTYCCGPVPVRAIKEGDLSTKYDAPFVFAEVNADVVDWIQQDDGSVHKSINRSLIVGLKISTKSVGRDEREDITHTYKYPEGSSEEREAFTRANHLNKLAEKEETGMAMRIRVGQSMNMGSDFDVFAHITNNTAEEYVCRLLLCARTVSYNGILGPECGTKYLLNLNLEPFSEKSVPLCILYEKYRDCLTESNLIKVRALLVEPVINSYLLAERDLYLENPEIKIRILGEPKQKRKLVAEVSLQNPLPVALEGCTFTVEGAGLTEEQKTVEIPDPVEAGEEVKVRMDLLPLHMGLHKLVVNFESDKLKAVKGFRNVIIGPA

[2] = target: T1, Protein-glutamine gamma-glutamyltransferase (Homo sapiens); assay: Inhibition of GTP binding to TG2 (unknown origin) measured by GTP Gamma-S-FL BODIPY assay
[3] = target: T1, Protein-glutamine gamma-glutamyltransferase (Homo sapiens); assay: Inhibition of TG2 (unknown origin) using Cbz-Glu(gamma-p-nitrophenyl ester)Gly (AL5) as substrate assessed as Kinact/Ki ratio and measured by colorimetric assay

SMILES	Kinact [1] [min⁻¹]	inhibition [2]	Ratio [3]
C=CC(=O)NCCCC[C@H](NC(=O)Cc1ccccc1)C(=O)N1CCN(C(=O)c2cccc3ccccc23)CC1	1.03	Active	–
C=CC(=O)NCCCC[C@H](NC(=O)c1ccccc1)C(=O)N1CCN(C(=O)c2cccc3ccccc23)CC1	1.34	–	48.4 10^3/M/min
